From PMC7292230 (Journal of medicinal chemistry, 2020)

The chains behind the UniProt entries cited, without tags or fusion partners. Where a name states a change or a piece, a line headed by the entry shows the natural chain unless it says otherwise.
UniProt P48426: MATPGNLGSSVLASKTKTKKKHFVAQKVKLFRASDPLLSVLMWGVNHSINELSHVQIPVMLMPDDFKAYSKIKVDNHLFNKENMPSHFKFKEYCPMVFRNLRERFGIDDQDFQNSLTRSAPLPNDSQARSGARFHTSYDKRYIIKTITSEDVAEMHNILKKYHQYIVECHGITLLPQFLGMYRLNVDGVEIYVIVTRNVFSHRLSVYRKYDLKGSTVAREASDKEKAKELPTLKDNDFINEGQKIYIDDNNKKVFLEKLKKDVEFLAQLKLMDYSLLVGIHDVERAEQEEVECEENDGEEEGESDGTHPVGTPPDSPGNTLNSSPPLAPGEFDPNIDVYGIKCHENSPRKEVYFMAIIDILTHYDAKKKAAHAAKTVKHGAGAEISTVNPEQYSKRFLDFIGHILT
UniProt P78356: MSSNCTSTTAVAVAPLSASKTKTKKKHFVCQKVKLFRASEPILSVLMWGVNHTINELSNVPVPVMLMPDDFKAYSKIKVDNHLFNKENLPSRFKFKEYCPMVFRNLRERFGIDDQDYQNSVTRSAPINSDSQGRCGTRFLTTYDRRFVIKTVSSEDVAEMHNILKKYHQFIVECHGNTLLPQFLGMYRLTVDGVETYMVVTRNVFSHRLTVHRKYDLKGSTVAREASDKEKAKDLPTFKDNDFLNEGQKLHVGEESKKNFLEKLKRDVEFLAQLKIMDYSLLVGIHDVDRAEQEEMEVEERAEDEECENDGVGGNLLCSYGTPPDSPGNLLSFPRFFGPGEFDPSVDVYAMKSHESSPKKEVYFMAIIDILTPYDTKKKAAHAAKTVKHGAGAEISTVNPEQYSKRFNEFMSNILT

How the values were obtained:
PI5P4Kα = PI5P4Kα (Homo sapiens, UniProt P48426)
PI5P4Kβ = PI5P4Kβ (Homo sapiens, UniProt P78356)

CN(C)C/C=C/C(=O)Nc1ccc(C(=O)Nc2cccc(Nc3cc(-c4c[nH]c5ccccc45)ncn3)c2)cc1 [THZ-P1–2]
covalent modification (labeling) of PI5P4Kα (PI5P4Kα): 63–87% | covalent modification (labeling) of PI5P4Kβ (PI5P4Kβ): 63–87%
